The text below walks through data of PMC10771525 (Communications Biology, 2024).

By UniProt entry, the sequences of proteins in these tests, tags left out. Where a name states a change or a piece, a line headed by the entry shows the natural chain unless it says otherwise. Residues count along the entry.
UniProt P43116: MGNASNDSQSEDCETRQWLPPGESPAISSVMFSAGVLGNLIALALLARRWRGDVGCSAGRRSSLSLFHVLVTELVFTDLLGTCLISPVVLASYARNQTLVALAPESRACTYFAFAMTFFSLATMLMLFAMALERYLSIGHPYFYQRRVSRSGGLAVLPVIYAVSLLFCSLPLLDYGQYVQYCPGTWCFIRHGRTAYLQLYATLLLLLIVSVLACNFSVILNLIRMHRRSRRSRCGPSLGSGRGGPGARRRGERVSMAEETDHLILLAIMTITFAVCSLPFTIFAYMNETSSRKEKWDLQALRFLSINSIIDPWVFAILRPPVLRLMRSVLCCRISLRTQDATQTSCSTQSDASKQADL
UniProt O60895, 43-175: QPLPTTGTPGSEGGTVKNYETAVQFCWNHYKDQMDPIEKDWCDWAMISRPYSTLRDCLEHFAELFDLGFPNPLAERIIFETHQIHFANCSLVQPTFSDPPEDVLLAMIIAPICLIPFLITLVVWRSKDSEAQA
UniProt Q16602, 23-461: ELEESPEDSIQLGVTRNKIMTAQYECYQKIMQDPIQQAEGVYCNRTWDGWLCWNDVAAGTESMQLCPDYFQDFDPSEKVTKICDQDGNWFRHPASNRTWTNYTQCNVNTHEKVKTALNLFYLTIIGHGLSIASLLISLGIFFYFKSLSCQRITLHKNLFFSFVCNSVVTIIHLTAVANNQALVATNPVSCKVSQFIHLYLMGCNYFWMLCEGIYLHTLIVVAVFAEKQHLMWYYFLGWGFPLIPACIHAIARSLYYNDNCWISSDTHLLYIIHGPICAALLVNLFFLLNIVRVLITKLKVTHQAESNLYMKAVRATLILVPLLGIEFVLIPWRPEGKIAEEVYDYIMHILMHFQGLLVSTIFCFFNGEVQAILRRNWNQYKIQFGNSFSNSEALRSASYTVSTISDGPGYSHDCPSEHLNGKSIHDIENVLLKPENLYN
UniProt O60896, 24-148: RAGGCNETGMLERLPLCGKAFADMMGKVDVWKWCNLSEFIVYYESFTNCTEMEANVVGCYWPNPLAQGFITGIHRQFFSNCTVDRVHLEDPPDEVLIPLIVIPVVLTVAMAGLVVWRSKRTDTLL
UniProt P47871, 26-477: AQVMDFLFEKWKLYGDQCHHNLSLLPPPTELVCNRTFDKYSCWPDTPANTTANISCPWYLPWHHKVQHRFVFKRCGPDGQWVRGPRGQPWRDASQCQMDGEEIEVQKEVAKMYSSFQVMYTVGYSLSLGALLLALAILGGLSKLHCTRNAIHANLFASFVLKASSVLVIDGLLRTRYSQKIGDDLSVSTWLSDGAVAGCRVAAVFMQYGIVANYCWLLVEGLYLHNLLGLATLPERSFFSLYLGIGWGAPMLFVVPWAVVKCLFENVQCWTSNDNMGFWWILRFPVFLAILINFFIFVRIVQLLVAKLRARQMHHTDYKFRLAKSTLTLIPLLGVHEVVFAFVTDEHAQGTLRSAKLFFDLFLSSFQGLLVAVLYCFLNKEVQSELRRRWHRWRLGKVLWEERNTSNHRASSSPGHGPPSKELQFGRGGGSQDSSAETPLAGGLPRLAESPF

What all share (experiment): GPCR panel (control), Arrestin, CHO-K1
Holding throughout (assay type): cell-based
What all share (conditions): reference agonist

Assay [1] deals with PTGER2 (Homo sapiens, UniProt P43116).
Assay [2] addresses T1, CALCRL + RAMP2 (Homo sapiens, UniProt O60895+Q16602).
T1 construct: expressed in transfected cells; host or cells: CHO-K1

For assay [3], the target named is T2, CALCRL + RAMP3 (Homo sapiens, UniProt O60896+Q16602).
T2 construct: expressed in transfected cells; host or cells: CHO-K1

The target in assay [4] is T3, AGTRL1 (Homo sapiens, UniProt P35414).
T3 construct: expressed in transfected cells; host or cells: CHO-K1
T3 sequence (P35414 1-380): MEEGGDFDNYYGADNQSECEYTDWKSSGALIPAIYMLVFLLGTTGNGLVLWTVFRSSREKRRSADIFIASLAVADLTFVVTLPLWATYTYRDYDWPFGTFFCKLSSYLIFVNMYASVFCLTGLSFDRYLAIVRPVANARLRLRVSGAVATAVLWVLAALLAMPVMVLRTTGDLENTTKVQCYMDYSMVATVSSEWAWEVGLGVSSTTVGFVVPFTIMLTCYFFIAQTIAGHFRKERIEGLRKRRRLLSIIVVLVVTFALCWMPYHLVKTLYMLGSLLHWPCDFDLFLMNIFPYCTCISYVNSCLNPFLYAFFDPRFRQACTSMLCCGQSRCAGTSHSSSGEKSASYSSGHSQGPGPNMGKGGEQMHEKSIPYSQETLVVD

Assay [5] addresses T4, GCGR (Homo sapiens, UniProt P47871).
T4 construct: expressed in transfected cells; host or cells: CHO-K1

Assay [6] deals with T5, PRLHR (Homo sapiens, UniProt P49683).
T5 construct: expressed in transfected cells; host or cells: CHO-K1
T5 sequence (P49683 1-370): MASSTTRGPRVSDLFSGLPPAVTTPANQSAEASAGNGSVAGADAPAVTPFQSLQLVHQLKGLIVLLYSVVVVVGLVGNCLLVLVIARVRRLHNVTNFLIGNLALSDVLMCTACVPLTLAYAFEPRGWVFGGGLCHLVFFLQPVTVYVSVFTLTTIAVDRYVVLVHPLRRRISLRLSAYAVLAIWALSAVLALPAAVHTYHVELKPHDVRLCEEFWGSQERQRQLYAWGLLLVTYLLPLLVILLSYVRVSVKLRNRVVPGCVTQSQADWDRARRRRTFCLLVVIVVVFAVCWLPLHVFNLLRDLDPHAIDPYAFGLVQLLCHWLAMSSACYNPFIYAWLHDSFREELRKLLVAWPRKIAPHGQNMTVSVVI

pEC50: −log10 of the molar value.

Consider `CCCCC[C@H](O)/C=C/[C@H]1[C@H](O)CC(=O)[C@@H]1C/C=C\CCCC(=O)O` [Prostaglandin E2], for which the pEC50 (in general, the negative decadic logarithm of the EC50, by convention in mol/L) in assay [1] is 5.92.

Turning to Adrenomedullin, the EC80 (in general, the concentration needed for an effect of 80%) in assay [2] was 0.15 µM; in assay [3], 0.1 µM.

Consider Apelin-13, for which, in assay [4], the “EC80” value came out at 0.16 µM.

On to Glucagon, for which the “EC80” value in assay [5] was found to be 0.32 µM.

With PrRP-31, the “EC80” value in assay [6] amounted to 0.034 µM.
